{
  "source": "paper doi:10.1101/2022.05.05.490751",
  "molecular_target": "m10",
  "assay": "SPR",
  "data": [
    {"substance": "Soluble A6 TCR", "values": [
      {"measurement": "Kd", "result": 2000, "unit": "nM"}
    ]}
  ]
}
